The entries are a selection whose mix differs from that of the whole data set. Inconclusive results are not listed. Some structures show a salt or complex split into parts, the way the source records it. The source made the active and inactive calls. Calls follow the shape of the dose curve; as a rule, active = well fitted cell-killing curve with a large enough effect; inconclusive = small, poorly fitted or top-dose-only effect, or effect the other way, or another doubt; inactive = no such curve, though single readings can be large or run the other way.
assay: qHTS for induction of synthetic lethality in tumor cells producing 2HG: qHTS for the HT-1080-IDH1KD cell line; details: HT-1080 IDH1 knockdown viability, ATP luminescence, 48 h; at 46.1 µM (top of the series);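 also: 0% = DMSO wells and -100% = cell-free medium wells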

Compound | activity, negative = toxicity
O=[N+]([O-])c1cc([N+](=O)[O-])c(OC2CCCCC2O)c([N+](=O)[O-])c1 (configuration not stated) | inactive: 10.5%
CCN(CC)CCCNc1ccccc1[N+](=O)[O-].O=[N+]([O-])c1cc([N+](=O)[O-])c(O)c([N+](=O)[O-])c1 | inactive: -17.1%
COc1ccc2c(c1O)-c1c(O)c(OC)cc3c1[C@H](C2)[N+](C)(C)CC3.O=[N+]([O-])c1cc([N+](=O)[O-])c([O-])c([N+](=O)[O-])c1[O-] | inactive: 6.56%
O=C(OC1CN2CCC1CC2)c1ccc([N+](=O)[O-])cc1 (configuration not stated) | inactive: 4.46%
O=C1C(O)=C([N+](=O)[O-])C(=O)C(O)=C1[N+](=O)[O-] | inactive: 10%
O=P1(N(CCCl)CCCl)SCCCS1 | inactive: 0.646%
Cc1ccc(Nc2c([N+](=O)[O-])cc([N+](=O)[O-])cc2[N+](=O)[O-])cc1 | inactive: -14.7%
Cn1c(=O)[nH]cc(N(CCCl)CCCl)c1=O | inactive: 4.36%
N/C(=N\O)c1c(N)no[n+]1[O-] | inactive: 19.8%
O=C(O)c1cccc(Nc2c([N+](=O)[O-])cc([N+](=O)[O-])cc2[N+](=O)[O-])c1 | inactive: -18.9%
CCOC(=O)C(CC)C1=NC(C)(C)Cc2ccccc21.O=[N+]([O-])c1cc([N+](=O)[O-])c(O)c([N+](=O)[O-])c1 (configuration not stated) | inactive: 17.1%
Cc1cc(N(CCCl)CCCl)ccc1C=O | inactive: -5.56%

Source: PubChem BioAssay AID686971 (National Center for Advancing Translational Sciences (NCATS), 2013)
